# According to US8507464B2, “Phosphoramidate alkylator prodrugs” (Threshold Pharmaceuticals, Inc., priority 2005, dated 2013):
# Test system: HT29 xenograft
# Test: HT-29 human colon carcinoma xenograft mouse model (Example 50)
# Settings: in vivo
smiles,measurement,value
"O=c1[nH]cc(F)c(=O)[nH]1 [Compound 5FU, 5-fluoro-2,4(1H,3H)-pyrimidinedione, reference compound]",% Inhibition vs Group 4,59.3%
